Results published in patent US4797280A, “Antibiotics produced by Kibdelosporangium aridum Shearer gen. nov., sp. nov. ATCC 39323” (SmithKline Beckman Corporation, priority 1986, dated 1989).

Legend:
[1] = tested on: C. difficile SK & F 3092; assay type: cell-based; details: Anaerobes
[2] = tested on: C. difficile SK & F 3091; assay type: cell-based; details: Anaerobes

Compound	MIC [1]	MIC [2]
CN[C@H]1C(=O)N[C@H]2C(=O)N[C@H](C(=O)N[C@H]3C(=O)N[C@H]4C(=O)N[C@H](C(=O)N[C@H](C(=O)O)c5cc(O)cc(O[C@H]6O[C@H](CO)[C@@H](O)[C@H](O)[C@@H]6O)c5-c5cc4ccc5O)[C@H](O)c4cc(Cl)c(c(Cl)c4)Oc4cc3cc(c4O[C@@H]3O[C@H](C(=O)O)[C@@H](O)[C@H](O)[C@H]3NC(=O)CCCCCCCCC(C)C)Oc3ccc(cc3Cl)[C@H]2O)c2cc(cc(O)c2Cl)Oc2cc1ccc2O	0.25 µg/mL (≈ 0.138 µM)	0.031 µg/mL (≈ 0.0171 µM)
CN[C@H]1C(=O)N[C@H]2C(=O)N[C@H](C(=O)N[C@H]3C(=O)N[C@H]4C(=O)N[C@H](C(=O)N[C@H](C(=O)O)c5cc(O)cc(O[C@H]6O[C@H](CO)[C@@H](O)[C@H](O)[C@@H]6O)c5-c5cc4ccc5O)[C@H](O)c4cc(Cl)c(c(Cl)c4)Oc4cc3cc(c4O[C@@H]3O[C@H](C(=O)O)[C@@H](O)[C@H](O)[C@H]3NC(=O)CCCCCCCC(C)C)Oc3ccc(cc3Cl)[C@H]2O)c2cc(cc(O)c2Cl)Oc2cc1ccc2O [AAD 216B]	0.25 µg/mL (≈ 0.139 µM)	0.25 µg/mL (≈ 0.139 µM)
CCCCCCCCCC(=O)N[C@H]1[C@H](Oc2c3cc4cc2Oc2c(Cl)cc(cc2Cl)[C@@H](O)[C@@H]2NC(=O)[C@H](NC(=O)[C@@H]4NC(=O)[C@H]4NC(=O)[C@H](NC(=O)[C@H](NC)c5ccc(O)c(c5)Oc5cc(O)c(Cl)c4c5)[C@H](O)c4ccc(c(Cl)c4)O3)c3ccc(O)c(c3)-c3c(O[C@H]4O[C@H](CO)[C@@H](O)[C@H](O)[C@@H]4O)cc(O)cc3[C@@H](C(=O)O)NC2=O)O[C@H](C(=O)O)[C@@H](O)[C@@H]1O [AAD 216A]	0.125 µg/mL (≈ 0.0699 µM)	0.125 to 0.25 µg/mL

Values after ≈ are worked out from the molar mass of the structure shown.
